As a reminder, the Ki is the equilibrium dissociation constant of an inhibitor or competing ligand from its target.

Amino acid sequences for entries named in this document (tags omitted).
UniProt P04150, whole entry: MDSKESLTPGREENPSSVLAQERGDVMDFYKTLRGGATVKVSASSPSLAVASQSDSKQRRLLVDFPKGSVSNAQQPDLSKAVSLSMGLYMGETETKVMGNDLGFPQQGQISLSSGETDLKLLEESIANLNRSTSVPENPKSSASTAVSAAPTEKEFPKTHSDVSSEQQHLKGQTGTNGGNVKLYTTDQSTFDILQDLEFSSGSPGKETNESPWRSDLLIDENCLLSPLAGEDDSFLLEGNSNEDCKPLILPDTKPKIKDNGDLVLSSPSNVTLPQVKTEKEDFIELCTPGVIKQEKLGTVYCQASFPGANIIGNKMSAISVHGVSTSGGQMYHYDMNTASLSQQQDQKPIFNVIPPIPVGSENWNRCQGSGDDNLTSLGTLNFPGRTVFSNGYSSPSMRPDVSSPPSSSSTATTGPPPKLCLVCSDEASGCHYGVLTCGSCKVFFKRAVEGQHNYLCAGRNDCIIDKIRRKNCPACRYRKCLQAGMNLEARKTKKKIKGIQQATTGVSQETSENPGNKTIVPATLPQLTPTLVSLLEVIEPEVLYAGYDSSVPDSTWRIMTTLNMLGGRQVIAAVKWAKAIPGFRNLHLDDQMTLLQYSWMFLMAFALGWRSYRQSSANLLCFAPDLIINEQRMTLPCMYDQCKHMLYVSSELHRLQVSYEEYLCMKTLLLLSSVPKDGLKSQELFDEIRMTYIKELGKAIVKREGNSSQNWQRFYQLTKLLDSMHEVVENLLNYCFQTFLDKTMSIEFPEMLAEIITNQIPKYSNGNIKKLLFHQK

In US20250115583A1, “BICYCLIC INDAZOLE GLUCOCORTICOID RECEPTOR ANTAGONISTS” (Corcept Therapeutics Incorporated, priority 2021, published 2025) one finds Ki data, which are given here for 5 compounds.

For this experiment, the target named is glucocorticoid receptor (Homo sapiens (Human), UniProt P04150). The experiment in a line: HepG2 TAT assay: inhibition of dexamethasone-induced tyrosine aminotransferase (TAT) activity. The format is cell-based. The conditions noted are these: read-out: HepG2 TAT Ki; HepG2 cells, challenge of 100 nM dexamethasone, 18-24 hr; IC50 converted to Ki by Cheng and Prusoff equation.

Take `Cc1cc2c(cnn2-c2ccc(F)cc2)cc1[C@@]12CN(S(=O)(=O)c3cnn(C)n3)C[C@@H]1[C@@H]2c1cccc(C(F)(F)F)c1` (relative stereo): the inhibitory constant (Ki) was determined as 30 nM.
As to `Cc1cc2c(cnn2-c2ccc(F)cc2)cc1[C@@]12CN(S(C)(=O)=O)C[C@@H]1[C@H]2c1cccc(C(F)(F)F)c1` (relative stereo), the Ki stood at 200 nM.
Turning to `Cc1cc2c(cnn2-c2ccc(F)cc2)cc1[C@@]12CN(S(=O)(=O)c3cnn(C)n3)C[C@@H]1[C@@H]2c1ccc(C(F)(F)F)cc1` (relative stereo), the Ki is 130 nM.
For `Cc1cc2c(cnn2-c2ccc(F)cc2)cc1[C@@]12CN(S(=O)(=O)c3cnn(C)n3)C[C@@H]1[C@H]2c1cccc(C(F)(F)F)c1` (relative stereo), the Ki amounted to 200 nM.
`Cc1cc2c(cnn2-c2ccc(F)cc2)cc1[C@@]12CN(S(=O)(=O)c3cnn(C)n3)C[C@@H]1[C@H]2c1ccc(C(F)(F)F)cc1` (relative stereo): the Ki came to 50 nM.
